Consider one compound from patent publication US8309768B2, “FTY720-derived anticancer agents” (The Ohio State University Research Foundation, priority 2010, dated 2012).

Protein sequences, listed by entry. Tags and fused reporters are not part of them.
UniProt P21453, whole entry: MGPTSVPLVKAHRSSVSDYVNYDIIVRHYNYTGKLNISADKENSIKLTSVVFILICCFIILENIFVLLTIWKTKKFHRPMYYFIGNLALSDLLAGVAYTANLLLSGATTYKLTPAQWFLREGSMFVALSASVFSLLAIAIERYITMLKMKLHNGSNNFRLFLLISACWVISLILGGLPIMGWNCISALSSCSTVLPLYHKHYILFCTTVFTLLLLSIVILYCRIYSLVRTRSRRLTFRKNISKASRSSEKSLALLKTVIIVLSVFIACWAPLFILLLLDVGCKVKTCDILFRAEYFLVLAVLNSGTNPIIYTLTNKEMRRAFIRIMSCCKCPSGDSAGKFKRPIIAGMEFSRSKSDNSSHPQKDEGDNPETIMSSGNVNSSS

This experiment addresses T1, S1P1 receptor-overexpressing Huh7 cells (Homo sapiens, UniProt P21453).
T1 construct: expressed in transfected cells
In words: Immunocytochemical analysis of S1P1 receptor internalization. It is filed as cell-based. To be noted: immunocytochemistry. The method, then: Overexpression of S1P1 Receptors. Huh7 or Hep3B cells were transfected with plasmids encoding S1PR1, Flag-tagged GST-π or hemagglutinin (HA)-tagged, CA-Akt. The corresponding empty vectors were used as controls. Stable clones were selected over 3 weeks by geneticin, and the expression of cloned proteins was confirmed by Western blotting.
Immunocytochemistry. Immunocytochemical analysis of S1P1 internalization and PKCδ nuclear translocation were performed as described. Tseng et al., Mol Pharmacol 70, 1534-1541 (2006). Briefly, treated cells were washed, fixed with 4% paraformaldehyde, and permeabilized with 0.1% Triton X-100. After blocking with 2% FBS, cells were incubated with rabbit anti-S1P1 or rabbit anti-PKCδ antibodies (1:200 dilution, 4° C., 24 h), followed by Alexa Fluor 488-conjugated goat anti-rabbit IgG (room temperature, 1 h). Nuclei were counterstained with a 4,6-diamidino-2-phenylindole (DAPI)-containing mounting medium (Vector Laboratories, Burlingame, Calif.).

Take `CCCCCCCCc1ccc(CCC(N)(CO)COP(=O)(O)O)cc1` (stereo not shown) [p-FTY720]: the “S1P1 receptor internalization and clustering in the cytoplasm” value is “profound effect”.
